Test results: US11835522B2, “Sensors for detecting and imaging of cancer metastasis” (Massachusetts Institute of Technology, priority 2019, dated 2023)

Test system: CRC lung metastases (MMP9-secreting MC26 cells)
Conditions: mouse, in vivo

OC[C@H]1OC(O)[C@H]([18F])[C@@H](O)[C@@H]1O (stereo partly shown) [^18F-FDG, ^18F-2-deoxyfluoroglucose]
heart accumulation / background signal in the chest: strong accumulation in the heart
